# According to article PMC11370232, “Repurposing of a library for high-content screening of inhibitors against Echinococcus granulosus” (Parasites & Vectors, 2024):
# Read-outs that look alike come from different tables or passages of the source.
# How the values were obtained:
# [1] = system: E. granulosus PSCs
# [2] = system: E. granulosus PSCs; test: microbe, parasite or virus in culture; conditions: Echinococcus granulosus, 72 h
# [3] = second-stage dose-response, 2 μM, PSCs
# [4] = second-stage dose-response, 10 μM, PSCs
# [5] = primary screen, 50 μM, PSCs, 3-day incubation, PI staining (death rate of PSCs)
# [6] = second-stage dose-response, 0.5 μM, PSCs
# [7] = second-stage dose-response, 50 μM, PSCs
Compound,"Anti-echinicoccus activity, Dose confirmaiton 2uM [1, 3]","Anti-echinicoccus activity, Dose confirmaiton 10uM [1, 4]","Anti-echinicoccus activity, Initiate hits 50uM [1, 5]","Anti-echinicoccus activity, Dose confirmaiton 0.5uM [1, 6]","Anti-echinicoccus activity, Dose confirmaiton 50uM [1, 7]",further results
CC(=O)[C@]1(O)Cc2c(O)c3c(c(O)c2[C@@H](O[C@H]2C[C@H](N)[C@H](O)[C@H](C)O2)C1)C(=O)c1ccccc1C3=O [Idarubicin],0,0,–,–,–,"killing at 50 µM ([2]; read-out: Anti-echinicoccus activity, Dose confirmaiton 50uM, second-stage dose-response, 50 μM, PSCs): 100%; killing at 50 µM ([2]; read-out: Anti-echinicoccus activity, Initiate hits 50uM, primary screen, 50 μM, PSCs, 3-day incubation, PI staining (death rate of PSCs)): 100%"
"CC#CC(=O)Nc1ccc2ncnc(Nc3cccc(Br)c3)c2c1 [CL-387785 (EKI-785), CL-387785]",0,0,95,0,100,–
CCn1c2ccccc2c2cc(Nc3ccnc(NCCCN4CCOCC4)n3)ccc21 [EHop-016],0,0,100,0,100,–
Cc1ccc(S(=O)(=O)c2ccc([N+](=O)[O-])o2)cc1 [NSC697923],–,–,–,–,–,"Anti-echinicoccus activity, Dose confirmaiton 0.5uM [1]: 0; Anti-echinicoccus activity, Dose confirmaiton 2uM [1]: 0; Anti-echinicoccus activity, Dose confirmaiton 10uM [1]: 100; Anti-echinicoccus activity, Dose confirmaiton 50uM [1]: 100; Anti-echinicoccus activity, Initiate hits 50uM [1]: 100"
"CC(=O)[C@]1(O)Cc2c(O)c3c(c(O)c2[C@@H](O[C@H]2C[C@H](N)[C@H](O)[C@H](C)O2)C1)C(=O)c1ccccc1C3=O.Cl [Idarubicin HCl, (7S,9S)-9-acetyl-7-((2R,4S,5S,6S)-4-amino-5-hydroxy-6-methyl-tetrahydro-2H-pyran-2-yloxy)-6,9,11-trihydroxy-7,8,9,10-tetrahydrotetracene-5,12-dione hydrochloride]",100,100,100,100,100,–
COc1cc(/C=C/C(=O)N2CCC=CC2=O)cc(OC)c1OC [Piperlongumine],–,–,–,–,–,"Anti-echinicoccus activity, Dose confirmaiton 0.5uM [1]: 0; Anti-echinicoccus activity, Dose confirmaiton 2uM [1]: 0; Anti-echinicoccus activity, Dose confirmaiton 10uM [1]: 0; Anti-echinicoccus activity, Dose confirmaiton 50uM [1]: 100; Anti-echinicoccus activity, Initiate hits 50uM [1]: 100"
CC(C)(Cc1ccc2ccccc2c1)NC[C@@H](O)COc1cccc(Cl)c1C#N [NPS-2143],–,–,–,–,–,"MIC90 (minimum inhibitory concentration causing a 90% death of PSCs) ([1]; third round, eight concentrations 0.5-64 μM, day 3 post-treatment): 30 µM"
O=C(O)C(O)C(O)C(=O)O.Oc1ccc2c(c1)CC[C@H](c1ccccc1)[C@@H]2c1ccc(OCCN2CCCC2)cc1 [Lasofoxifene tartrate],0,100,94,–,100,–
CC(C)[C@H]1c2ccc(F)cc2CC[C@@]1(CCN(C)CCCc1nc2ccccc2[nH]1)OC(=O)C1CC1 [NNC 55-0396],–,–,–,–,–,"Anti-echinicoccus activity, Dose confirmaiton 0.5uM [1]: 0; Anti-echinicoccus activity, Dose confirmaiton 2uM [1]: 0; Anti-echinicoccus activity, Dose confirmaiton 10uM [1]: 0; Anti-echinicoccus activity, Dose confirmaiton 50uM [1]: 100; Anti-echinicoccus activity, Initiate hits 50uM [1]: 100"
O=c1[nH]c2ccc(Cl)cc2c(N[C@@H]2CN3CCC2CC3)c1-c1nc2ccccc2[nH]1 [CHIR-124],0,20,100,0,100,–
CC(=O)OC[C@H]1O[C@@H]([S-])[C@H](OC(C)=O)[C@@H](OC(C)=O)[C@@H]1OC(C)=O.CCP(CC)CC.[Au+] [Auranofin],0,100,100,0,100,MIC90 (minimum inhibitory concentration causing a 90% death of PSCs) [1]: 9.4 µM
CC(C)(C)c1cc(C=C(C#N)C#N)cc(C(C)(C)C)c1O [Tyrphostin 9],–,100,85,–,100,–
CC(C)(C)c1ccc(S(=O)(=O)/C=C/C#N)cc1 [Bay 11-7085],0,0,100,0,100,–
COc1cccc2c(NCc3ccccc3)nc(-n3c(N)nc4ccccc43)nc12 [ML240],–,–,–,–,–,"Anti-echinicoccus activity, Dose confirmaiton 0.5uM [1]: 0; Anti-echinicoccus activity, Dose confirmaiton 2uM [1]: 0; Anti-echinicoccus activity, Dose confirmaiton 10uM [1]: 100; Anti-echinicoccus activity, Dose confirmaiton 50uM [1]: 100; Anti-echinicoccus activity, Initiate hits 50uM [1]: 100"
CC(C)(C)C(=O)Nc1ccc2c(c1)C(=O)C(=O)c1ccccc1-2 [SF1670],0,100,100,–,100,–
"CCC[C@H](NC(=O)/C(C#N)=C/c1cccc(Br)n1)c1ccccc1 [Degrasyn (WP1130), Degrasyn]",0,100,98,0,100,"survival rate of PSCs ([1]; 50 μM, 3 days, 96-well): 0%; mortality of echinococcal PSCs ([1]; 50 μM, primary HCS format, 3 days): complete mortality"
Cl.O=C(NC1CCNCC1)c1[nH]ncc1NC(=O)c1c(Cl)cccc1Cl [AT7519 HCl],0,0,98,0,100,–
